For the experiment, the species on record is Homo sapiens. The experiment can be described thus: Selectivity ratio of IC50 for inhibition of Bcr-Abl T315I mutant (unknown origin) to IC50 for inhibition of wild type Bcr-Abl (unknown origin).
Turning to `CC(C)(C)OC(=O)N1C[C@@H](n2cc(-c3ccc4nc(N)sc4n3)nn2)C[C@H]1C(=O)Nc1ccc(F)c(F)c1`, the Ratio IC50 came out at 27.9. With `Nc1n[nH]c2cc(-c3cn([C@@H]4CN[C@H](C(=O)Nc5ccc(Br)cc5)C4)nn3)ccc12` the figure was 7.11; with `Nc1nc2ccc(-c3cn([C@@H]4CN[C@H](C(=O)Nc5ccc(F)c(F)c5)C4)nn3)nc2s1`, 12.4; with `Nc1nc2ccc(-c3cn([C@@H]4CN[C@H](C(=O)Nc5ccc(Cl)cc5Cl)C4)nn3)nc2s1`, 12.5. With `CS(=O)(=O)Nc1ccc(-c2cn([C@@H]3CN[C@H](C(=O)Nc4ccc(Cl)c(C(F)(F)F)c4)C3)nn2)cn1` the figure was 226. Regarding `CC(C)(C)OC(=O)N1C[C@@H](n2cc(-c3ccc(N)nc3)nn2)C[C@H]1C(=O)Nc1ccc(Cl)c(C(F)(F)F)c1`, the Ratio IC50 stood at 133. Then `O=C(Nc1nc2ccc(-c3cn([C@@H]4CN[C@H](C(=O)Nc5ccc(Br)cc5)C4)nn3)nc2s1)C1CC1`, with 3.21. On to `CC(C)(C)OC(=O)N1C[C@@H](n2cc(-c3ccc4nc(N)sc4n3)nn2)C[C@H]1C(=O)Nc1ccc(Cl)c(C(F)(F)F)c1`, for which the Ratio IC50 is 63.1.

For `CC(=O)Nc1n[nH]c2cc(-c3cn([C@@H]4CN[C@H](C(=O)Nc5ccc(Br)cc5)C4)nn3)ccc12`, the Ratio IC50 turned out to be 58.7.

On to `CC(=O)Nc1nc2ccc(-c3cn([C@@H]4CN[C@H](C(=O)Nc5ccc(Cl)c(C(F)(F)F)c5)C4)nn3)nc2s1`, for which the Ratio IC50 amounted to 2.54. Then `CC(=O)Nc1nc2ccc(-c3cn([C@@H]4CN[C@H](C(=O)Nc5ccc(F)c(F)c5)C4)nn3)nc2s1`, with 9.39; and `Nc1n[nH]c2cc(-c3cn([C@@H]4CN[C@H](C(=O)Nc5ccc(Cl)cc5Cl)C4)nn3)ccc12`, with 426; and `CC(C)(C)OC(=O)N1C[C@@H](n2cc(-c3ccc4nc(N)sc4n3)nn2)C[C@H]1C(=O)Nc1ccc(Cl)cc1Cl`, with 28. `CCN1CCN(c2cc(NC(=O)[C@@H]3C[C@H](n4cc(-c5ccc6c(N)n[nH]c6c5)nn4)CN3)ccc2Cl)CC1`: the Ratio IC50 came out at 9.74. In the case of `O=C(NC1CC1)c1cncc(-c2cn([C@@H]3CN[C@H](C(=O)Nc4ccc(Cl)c(C(F)(F)F)c4)C3)nn2)c1`, the Ratio IC50 amounted to 16.3. As for `O=C(Nc1n[nH]c2cc(-c3cn([C@@H]4CN[C@H](C(=O)Nc5ccc(Br)cc5)C4)nn3)ccc12)C1CC1`, the Ratio IC50 amounted to 26. With `O=C(Nc1n[nH]c2cc(-c3cn([C@@H]4CN[C@H](C(=O)Nc5ccc(Cl)c(C(F)(F)F)c5)C4)nn3)ccc12)C1CC1` the figure was 126. Then `CC(C)(C)C(=O)Nc1ccc(-c2cn([C@@H]3CN[C@H](C(=O)Nc4ccc(Cl)c(C(F)(F)F)c4)C3)nn2)cn1`, with 83; and `O=C(Nc1nc2ccc(-c3cn([C@@H]4CN[C@H](C(=O)Nc5ccc(F)c(F)c5)C4)nn3)nc2s1)C1CC1`, with 44.7; and `CCN(CC)C(=O)c1cncc(-c2cn([C@@H]3CN[C@H](C(=O)Nc4ccc(Cl)c(C(F)(F)F)c4)C3)nn2)c1`, with 18.1. As for `CC(C)(C)OC(=O)N1C[C@@H](n2cc(-c3ccc4c(N)n[nH]c4c3)nn2)C[C@H]1C(=O)Nc1ccc(Br)cc1`, the Ratio IC50 was found to be 4.74.

On to `CC(C)(C)OC(=O)N1C[C@@H](n2cc(-c3ccc4c(N)n[nH]c4c3)nn2)C[C@H]1C(=O)Nc1ccc(Cl)c(C(F)(F)F)c1`, for which the Ratio IC50 turned out to be 6.86. Then `CC(=O)Nc1n[nH]c2cc(-c3cn([C@@H]4CN[C@H](C(=O)Nc5ccc(Cl)c(C(F)(F)F)c5)C4)nn3)ccc12`, with 4.29.

Consider `Nc1nc2ccc(-c3cn([C@@H]4CN[C@H](C(=O)Nc5ccc(Br)cc5)C4)nn3)nc2s1`, for which the Ratio IC50 came out at 6.59. Consider `C=CC(=O)Nc1ccc(-c2cn([C@@H]3CN[C@H](C(=O)Nc4ccc(Cl)c(C(F)(F)F)c4)C3)nn2)cn1`, for which the Ratio IC50 was found to be 15.1. On to `Nc1ccc(-c2cn([C@@H]3CN[C@H](C(=O)Nc4ccc(Cl)c(C(F)(F)F)c4)C3)nn2)cn1`, for which the Ratio IC50 was 97.4.

As to `CC(C)(C)OC(=O)N1C[C@@H](n2cc(-c3ccc4c(N)n[nH]c4c3)nn2)C[C@H]1C(=O)Nc1ccc(Cl)cc1Cl`, the Ratio IC50 came to 31. Regarding `O=C(Nc1nc2ccc(-c3cn([C@@H]4CN[C@H](C(=O)Nc5ccc(Cl)cc5Cl)C4)nn3)nc2s1)C1CC1`, the Ratio IC50 came to 316. Take `Nc1n[nH]c2cc(-c3cn([C@@H]4CN[C@H](C(=O)Nc5ccc(Cl)c(C(F)(F)F)c5)C4)nn3)ccc12`: the Ratio IC50 was determined as 9.14.

On to `O=C(Nc1n[nH]c2cc(-c3cn([C@@H]4CN[C@H](C(=O)Nc5ccc(Cl)cc5Cl)C4)nn3)ccc12)C1CC1`, for which the Ratio IC50 was determined as 241. For `CC(C)(C)OC(=O)N1C[C@@H](n2cc(-c3ccc4nc(N)sc4n3)nn2)C[C@H]1C(=O)Nc1ccc(Br)cc1`, the Ratio IC50 came out at 3.66.

As for `CC(=O)Nc1ccc(-c2cn([C@@H]3CN[C@H](C(=O)Nc4ccc(Cl)c(C(F)(F)F)c4)C3)nn2)cn1`, the Ratio IC50 came to 36.9. Then `O=C(Nc1ccc(Cl)c(C(F)(F)F)c1)[C@@H]1C[C@H](n2cc(-c3cncc(C(=O)N4CCOCC4)c3)nn2)CN1`, with 13.3. Regarding `CC(=O)Nc1nc2ccc(-c3cn([C@@H]4CN[C@H](C(=O)Nc5ccc(Br)cc5)C4)nn3)nc2s1`, the Ratio IC50 came out at 24.2.

`CN(C)CCNC(=O)c1cncc(-c2cn([C@@H]3CN[C@H](C(=O)Nc4ccc(Cl)c(C(F)(F)F)c4)C3)nn2)c1`: the Ratio IC50 came out at 11.9. `CC(=O)Nc1nc2ccc(-c3cn([C@@H]4CN[C@H](C(=O)Nc5ccc(Cl)cc5Cl)C4)nn3)nc2s1`: the Ratio IC50 is 80.9. For `CC(=O)Nc1n[nH]c2cc(-c3cn([C@@H]4CN[C@H](C(=O)Nc5ccc(Cl)cc5Cl)C4)nn3)ccc12`, the Ratio IC50 amounted to 43.

With `O=C(Nc1nc2ccc(-c3cn([C@@H]4CN[C@H](C(=O)Nc5ccc(Cl)c(C(F)(F)F)c5)C4)nn3)nc2s1)C1CC1`, the Ratio IC50 turned out to be 4.46. Take `Nc1nc2ccc(-c3cn([C@@H]4CN[C@H](C(=O)Nc5ccc(Cl)c(C(F)(F)F)c5)C4)nn3)nc2s1`: the Ratio IC50 is 1.58.

Turning to `O=C(Nc1ccc(-c2cn([C@@H]3CN[C@H](C(=O)Nc4ccc(Cl)c(C(F)(F)F)c4)C3)nn2)cn1)C1CC1`, the Ratio IC50 was determined as 520.

The values above are taken from ChEMBL document CHEMBL5113400, “Design, synthesis, and biological evaluation of trizole-based heteroaromatic derivatives as Bcr-Abl kinase inhibitors” (Eur J Med Chem, 2022).
